Results taken from patent US20080089860A1, “Therapeutic compositions and methods useful in treating cancer” (priority 2006, published 2008).

Columns and labels:
MDA231 cells = assay: MDA231 breast cancer cell growth, MTT assay; type: cell-based, human; settings: the drug at 25 μg/ml and IFN-alpha, individually or combined
Experimental: (§1) For cell proliferation assays, cells were grown in 10% FCS culture medium containing various amounts of IFNs and/or sodium stibogluconate in 96 well plates and cultured at 37° C. for 3 or 6 days as indicated. The numbers of viable cells in proliferation assays were determined by MTT assays as described in Phatak et al., J. Immunol. 167, 3391 (2001).

DU145 xenografts = DU145 xenografts in nude mice, sodium stibogluconate and IFN-alpha; type: in vivo; settings: day 25; sodium stibogluconate 12 mg Sb s.c. daily, IFN-alpha 500,000 U s.c. daily
Experimental: (§2) Nude mice bearing WM9 or DU145 xenografts were treated with IFN-alpha (500,000 U, s.c., daily), sodium stibogluconate (12 mg Sb, s.c., daily) or both. […] The dosage of sodium stibogluconate corresponds to approximately 440 mg Sb/kg body weight (average mouse body weight 27 g), substantially higher than the standard therapeutic dose of 20 mg Sb/kg and the high dose (143 mg Sb/kg) that was clinically used by accident without serious toxicity. This dose of sodium stibogluconate was based on a previous observation in a pilot study that mice could tolerate daily dose of 20 mg Sb (approximately 700-800 mg Sb/kg). […] In light of the relatively rapid rate of clearance of the drug in vivo, 440 mg Sb/kg dosage was used to ensure the detection of the effectiveness of the drug for this initial study.
(§3) For each of the cell lines, each of 16 mice received subcutaneous injection at the chest area of 3×10^6 cells/site (WM9) or 2×10^6 cells/site (DU145), two sites/mouse, on day 0. Mice were separated into four groups of four to receive treatment, injected into the thigh area starting on day 2. Tumor size was measured with a caliper to determine the two perpendicular diameters of each tumor. Tumor volume was calculated using the method of the NCI (length×width 2 in millimeters/2=volume in cubic millimeters).

DR cells = assay: DR lymphoma cell growth, MTT assay; type: cell-based, human
Experimental: as §1

TF-1 cells = assay: TF-1 cell proliferation assay; type: cell-based, human; settings: IFN-alpha with or without sodium stibogluconate 50 μg/ml
Experimental: The murine hematopoietic cell line Baf3 was maintained in RPMI 1640 medium supplemented with 10% fetal calf serum (FCS) and murine IL-3 (20 units/ml) as described previously in Damen et al., J. Biol. Chem. 270, 23402 (1995). Human myeloid cell line TF-1 was maintained in RPMI 1640 supplemented with 10% FCS and 40 ng/ml of recombinant human GM-CSF as described previously in Thomassen et al., Clin. Immunol. 95, 85 (2000). For cell proliferation assays, cells were washed in 10% FCS medium twice, resuspended in 10% FCS medium, incubated at 37° C. for 16 hours, and then cultured at 37° C. in 10% FCS medium containing various amounts of cytokines, sodium stibogluconate, or potassium antimonyl tartrate for 3-6 days as indicated. The cell numbers in proliferation assays were determined by an MTT assay or by microscopic cell counting as indicated.

[1] = system: DU145 human prostate carcinoma xenografts; assay: DU145 xenografts (s.c.) in nude mice, SSG and SSG/IFNα2; type: in vivo
Source text: Sodium stibogluconate (SSG) eradicated WM9 human melanoma xenografts in mice in synergy with IFNα2 and is currently in Phase I clinical trial. SSG was also found to inhibit murine Renca tumor growth via an immune mechanism independent of direct growth inhibition. […] Histologic evaluation of the inoculation sites identified multiple micro tumors in mice treated with SSG (˜4/site) or SSG/IFN[…]2 (˜2/site) in contrast to the single large tumors in the control or IFNα2-treated mice. […] Consistent with the pre-existence of an SSG-resistant subpopulation, DU145 cells but not WM9 cells cultured in the presence of SSG formed colonies with ˜4% frequency.

WM9 cells [2] = assay: WM9 melanoma cell growth, MTT assay; type: cell-based, human; settings: the drug at 25-100 μg/ml and IFN-alpha, individually or in combination
Experimental: as §1
Dose response curves were generated for each drug alone, and also the combinations. Median effect plots were generated for IFNs alone, sodium stibogluconate alone, and the combination. The combination index (CI) was determined and plotted vs. fraction affected (FA). Data were analyzed in both modes, mutually exclusive and mutually nonexclusive. The interaction between two mutually nonexclusive drugs is described by the Equation CI=D1/Dx1+D2/Dx2+D1D2/Dx1Dx2, where Dx1 and Dx2 are the doses of drug 1 and drug 2 that are required to inhibit growth x %. […] When CI<1, drugs are synergistic, when CI=1, drugs are additive, and when CI>1, drugs are antagonistic. […]

[3] = Toxicity in nude mice (viability, body weight); type: in vivo; settings: day 25
Experimental: as §2
As discussed above, the dosage of sodium stibogluconate used for the treatment of nude mice was 12 mg Sb/mouse, s.c., daily (or approximately 440 mg/kg body weight). This dosage is much higher than the standard dose for leishmaniasis (20 mg Sb/kg, daily). As an initial step to assess the toxicity of such a high dosage of sodium stibogluconate in nude mice, the effect of sodium stibogluconate on the viability and body weights of WM9 xenografts nude mice during the 25 day period of the study was determined.

WM9 xenografts = assay: WM9 melanoma xenografts in nude mice; type: in vivo; settings: day 25; sodium stibogluconate 12 mg Sb s.c. daily, IFN-alpha 500,000 U s.c. daily
Experimental: Nude mice bearing WM9 or DU145 xenografts were treated with IFN-alpha (500,000 U, s.c., daily), sodium stibogluconate (12 mg Sb, s.c., daily) or both. […] The dosage of sodium stibogluconate corresponds to approximately 440 mg Sb/kg body weight (average mouse body weight 27 g), substantially higher than the standard therapeutic dose of 20 mg Sb/kg and the high dose (143 mg Sb/kg) that was clinically used by accident without serious toxicity. This dose of sodium stibogluconate was based on a previous observation in a pilot study that mice could tolerate daily dose of 20 mg Sb (approximately 700-800 mg Sb/kg). […]
as §3, with “Mice were separated into four groups of four to receive treatment, injected into the thigh area starting on day 2.” left out
To test the anti-tumor effects of sodium stibogluconate and its synergy with IFN-alpha in vivo, the effect of sodium stibogluconate, IFN-alpha and their combination against xenografts of human WM9 melanoma in nude mice was determined. […] Tumor volume of WM9 xenografts in the mice was determined during the treatment course as indicators of efficacy of the treatment (FIG. 22A).

U266 cells = assay: U266 apoptosis, Annexin V/propidium iodide; type: cell-based, human; settings: 3 days; sodium stibogluconate 100 μg/ml, IFN-alpha 1000 units/ml; untreated 8%
Experimental: (§4) Annexin V staining of exposed membrane phospholipid phosphatidylserine (PS) was done using the Annexin V assay kit (Pharmingen, San Diego, Calif.). Briefly, U266 or WM9 cells were cultured in the 10% FCS RPMI 1640 medium in the absence or presence of sodium stibogluconate, IFN-alpha or both for 3 days. Cells were then washed in PBS twice and stained in binding buffer (10 mM Hepes, pH 7.4; 140 mM NaCl; 2.5 mM CaCl2) containing Annexin V-FITC and propidium iodide for 15 min. The reaction was stopped by adding 10 volumes of binding buffer and analyzed by FACS (Becton Dickinson Facsvantage) or fluorescent microscopy.

DS cells = assay: DS lymphoma cell growth, MTT assay; type: cell-based, human; settings: day 3; IFN-alpha 1,000 u/ml
Experimental: as §1

WM9 cells [4] = assay: WM9 apoptosis, fluorescent microscopy; type: cell-based, human; settings: control 5%
Experimental: as §4

advanced RCC = settings: human, in vivo; cited from earlier work
[5] = system: tumor-infiltrating and spleen macrophages (F4/80+), T and NK cells; assay: Immunohistochemistry of Renca tumors and spleen, Balb/c mice; type: in vivo; settings: Renca tumors
Experimental: Major internal organs and Renca tumors harvested from mice were fixed in 10% formalin or snap frozen in liquid nitrogen. H & E-stained tissue sections of the fixed samples were prepared and evaluated by microscopy as described previously (Yi, T., M. K. Pathak, D. J. Lindner, M. E. Ketterer, C. Farver, and E. C. Borden. 2002. Anticancer activity of sodium stibogluconate in synergy with IFNs. J Immunol 169:5978). Preparation of frozen tissue sections and immunohistochemistry were performed following established procedures (Joliat, M. J., P. A. Lang, B. L. Lyons, L. Burzenski, M. A. Lynes, T. Yi, J. P. Sundberg, and L. D.
Shultz. 2002. Absence of CD5 dramatically reduces progression of pulmonary inflammatory lesions in SHP-1 protein-tyrosine phosphatase-deficient ‘viable motheaten’ mice. J Autoimmun 18:105). The antibodies used for immunohistochemistry were anti-CD4 (rat mAb, clone GK1.5, BD Biosciences, Franklin Lakes, N.J.), anti-CD8 (rat mAb, clone 53-6.7.5, BD Biosciences, Franklin Lakes, N.J.), anti-F4/80 (rat mAb, clone A3-1, Serotec, Oxford, UK) and anti-Asialo GM1 (rabbit polyclonal, Cedarlane, Hornby, Canada). […] Tissue sections of 2 mice/group were evaluated. The number of immune cells was semi-quantified based on the following scheme: […], 0-1 positive cells/40×field; +, 2-5 positive cells/40×field; ++, 6-10 positive cells/40×field, etc.

Renca tumors = Renca tumors in Balb/c mice; type: in vivo; settings: two weeks; SSG 12 mg daily i.m., IL-2 105 IU daily i.p.
Experimental: Balb/c and athymic nude Balb/c mice (10 weeks old, female, Taconic Farms, Germantown, N.Y.) were inoculated (s.c.) at the flanks with Renca cells (10^6 cells/site). Four days post-inoculation, the mice were subject to no treatment (Control) or treatment with IL-2 ([…]/daily for 5 days, i.p.), SSG (12 mg/daily, i.m. at hip regions) or the combination of the two agents for two weeks. […] The dose of SSG was similar to the effective daily dose of the drug for the treatment of murine leishmaniasis (Murray, H. W., J. D. Berman, and S. D. Wright. 1988. Immunochemotherapy for intracellular Leishmania donovani infection: gamma interferon plus pentavalent antimony. J Infect Dis 157:973). Tumor volume was measured during the study period and calculated using the formula for a prolate spheroid (V=4/3×a2b) (Lindner, D. J., E. C. Borden, and D. V. Kalvakolanu. 1997. Synergistic antitumor effects of a combination of interferons and retinoic acid on human tumor cells in vitro and in vivo. Clin Cancer Res 3:931). Student's t test was used for assessing the significance of tumor volume differences among differential treatment groups. Mouse viability (daily) and body weights (weekly) were also recorded during the study period. At the end of the study, Renca tumors and major internal organs (heart, kidney, liver, lung and spleen) were harvested for histology and immunohistochemistry analysis.

Substance | growth inhibition of MDA231 breast cancer cells (MDA231 cells) | DU145 average tumor volume relative to control (DU145 xenografts) | growth inhibition of DR cells (DR cells; day 3, IFN-alpha alone or with various amounts of sodium stibogluconate) | growth inhibition of DR cells (DR cells; day 6, IFN-alpha alone) | GM-CSF-induced proliferation of TF-1 cells (TF-1 cells) | DU145 tumor growth inhibition [1] | growth inhibition of WM-9 melanoma cells (WM9 cells [2]) | survival of WM9-inoculated nude mice [3] | WM9 tumor volume relative to control group (WM9 xenografts) | percentage of apoptotic U266 cells (U266 cells) | activity against DS cells (DS cells) | apoptotic WM9 cells (WM9 cells [4]) | response rates in advanced RCC patients (advanced RCC) | increase of tumor-infiltrating Mφ (F4/80+) [5] | Renca tumor growth inhibition (Renca tumors)
IFN-alpha: recombinant human IFN-alpha (IFN-alpha-2b, Schering Plough) | 79% | approximately 70 % of control | 19% | 39% | suppressed | 33% | 58% | survived until the end of the study | approximately 40 % of control | 16% | almost completely eliminated | 15% | – | – | –
IL-2: recombinant IL-2 (Proleukin, Chiron) | – | – | – | – | – | – | – | – | – | – | – | – | 10-20% | comparable levels | failed to inhibit
